Our source for the Ki values is BindingDB's records for doi:10.1021/jm070566z (Sapienza University of Rome, 2008).

Sequences of proteins named here, by UniProt entry; tags and fusion partners are left off.
UniProt P21554, whole entry: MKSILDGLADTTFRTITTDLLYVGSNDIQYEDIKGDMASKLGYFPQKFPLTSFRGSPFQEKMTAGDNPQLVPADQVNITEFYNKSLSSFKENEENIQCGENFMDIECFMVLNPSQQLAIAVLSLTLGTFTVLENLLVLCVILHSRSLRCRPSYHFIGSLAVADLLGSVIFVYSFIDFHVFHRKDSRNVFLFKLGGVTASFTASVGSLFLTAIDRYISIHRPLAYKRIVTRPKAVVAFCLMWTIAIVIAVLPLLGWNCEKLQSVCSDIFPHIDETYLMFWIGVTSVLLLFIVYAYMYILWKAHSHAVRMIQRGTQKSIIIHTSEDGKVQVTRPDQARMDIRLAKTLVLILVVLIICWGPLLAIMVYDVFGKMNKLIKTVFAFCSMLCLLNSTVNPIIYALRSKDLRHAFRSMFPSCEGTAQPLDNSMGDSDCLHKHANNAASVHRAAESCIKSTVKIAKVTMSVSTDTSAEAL

In the experiment the target is Cannabinoid receptor 1 (Homo sapiens, UniProt P21554).

Turning to `Cc1ccc(Cn2nc(C(=O)NC3C(C)(C)C4CC[C@@]3(C)C4)cc2-c2ccc(Cl)c(C)c2)cc1` (stereo partly specified) [N-(1,3,3-trimethylbicyclo(2.2.1)heptan-2-yl)-5-(4-chloro-3-methylphenyl)-1-(4-methylbenzyl)pyrazole-3-carboxamide], the inhibition constant (Ki) (as a rule, the equilibrium dissociation constant of an inhibitor or competing ligand from its target) is > 2820 nM.
